The record followed here is ChEMBL document CHEMBL5385860, “Antiproliferative, antiangiogenic and apoptotic effect of new hybrids of quinazoline-4(3H)-ones and sulfachloropyridazine” (Eur J Med Chem, 2023).

By UniProt entry, the sequences of proteins in these tests, tags left out.
UniProt P15692, whole entry: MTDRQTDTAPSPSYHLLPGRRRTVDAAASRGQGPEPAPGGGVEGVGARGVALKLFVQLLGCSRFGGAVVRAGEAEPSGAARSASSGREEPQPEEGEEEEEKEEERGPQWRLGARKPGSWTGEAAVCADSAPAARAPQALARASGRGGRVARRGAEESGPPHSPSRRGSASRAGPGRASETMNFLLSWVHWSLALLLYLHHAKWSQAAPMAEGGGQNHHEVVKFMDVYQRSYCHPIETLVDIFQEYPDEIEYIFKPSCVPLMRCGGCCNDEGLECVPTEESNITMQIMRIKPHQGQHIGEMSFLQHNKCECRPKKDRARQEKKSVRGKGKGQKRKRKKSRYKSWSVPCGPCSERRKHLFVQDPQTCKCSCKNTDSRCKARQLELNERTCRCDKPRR

The target in this assay is Vascular endothelial growth factor A, long form (Homo sapiens) (UniProt P15692). Put plainly: Inhibition of VEGF-mediated cell migration in HUVEC cells assessed as wound closure at 10 ug/ml measured after 72 hrs by scratch-wound healing assay. The settings on record: dose 10.0 µg/ml. The format is cell-based. Further details: scale not given: the % may be the effect or the level left.

With `O=C(CSc1nc2ccccc2c(=O)n1CCc1ccccc1)Nc1ccc(S(=O)(=O)Nc2ccc(Cl)nn2)cc1`, the Activity was 58.5%.
